In data set [1] the test system is HSV-1 KOS mutant hrR3. Kind of data set: LacZ+ virus (hrR3) entry assay with pre-adsorbed virus (entry block). It counts as cell-based. To be noted: for loss of antiviral activity relative to non-substituted peptide: norleucine for R55 and R56, Table 4. On the procedure: LacZ^+ virus (hrR3) entry assay: Confluent Vero cell cultures in 96-well microtiter plates were switched to Hepes-buffered serum-free DMEM, cooled on ice to 4° C. for 30 min, and infected with hrR3 for 1 hour at 4° C. in 40 μL of medium. Unattached virus was removed by rinsing with ice-cold medium. Treatments with antiviral peptide SEQ ID NO:1, referred to as EB, or a control peptide which comprised the RRKK tetra-peptide (SEQ ID NO:16) attached to a scrambled version of the membrane transiting peptide RRKKLAALPLVLAAPLAVLA (SEQ ID NO:17) (referred to as EBX), or mock-treatments with peptide-free medium were carried out in serum-free DMEM as indicated. Virus entry was initiated by transferring cultures to 37° C. To inactivate any remaining extracellular virus, cultures were rinsed with PBS and exposed to low pH citrate buffer (40 mM citric acid, 10 mM KCl, 135 mM NaCl, pH 3.0, according to Highlander et al., J. Virol. 61:3356 (1987), for 1 min at 23° C. The citrate was rinsed off with PBS and cultures were maintained in serum-supplemented DMEM until they were fixed with 0.5% gluteraldehyde in 5×PBS for 30 min at 23° C., stained for β-galactosidase activity for 1 hour or overnight at 23° C. with X-gal (Fisher Biotech; BP1615-1) in 1×PBS containing […], 1.3 mM K4Fe(CN)6, and 1.3 mM K3Fe(CN)6, and scored for the presence of blue […] cells.
In these studies, the hrR3 virus was pre-adsorbed to cells for 1 hour at 4° C. before ice cold 25 μM EB or EBX were added in serum-free DMEM. After an additional 1 hour at 4° C., cultures were shifted to 37° C. to initiate virus entry. At 15 min intervals following the temperature shift, any virus remaining outside the cells was inactivated by washing the cultures with low pH citrate buffer. Cultures were then rinsed and returned to peptide-free serum-supplemented DMEM until they were fixed and stained for β-galactosidase 8 hours after the temperature shift.
(§1) Two assays were used to assess the ability of the TAT peptides to inhibit infection of Vero cells with the hrR3 virus. In both assays, the virus was preadsorbed to cells at 4° C. and entry was initiated in the presence of peptide by shifting the cultures to a permissive temperature (30-37° C.). One hour later, the peptide was rinsed off. The entry blocking activity was measured in half of the cultures, in which any extracellular virus remaining after the peptide treatment was inactivated with low pH citrate buffer. The rest of the cultures were exposed to PBS instead of citrate buffer and used to measure virus inactivation. Virus inactivation depended on persistent effects of the peptide lasting for a period of eight hours. At the end of that period, all cultures were fixed and infected cells were detected by staining with X-gal.
(§2) Virus (m.o.i.=0.025) was preadsorbed to Vero cells for 1 h at 4° C. before cultures were exposed to TAT-C (FIG. 15A), bTAT-9X (FIG. 15B), or n50,51TAT-C (FIGS. 15C, 15D) for 1 h at 33 (FIGS. 15A, 15B), 31 (FIG. 15C), or 37° C. (FIG. 15D). […] Inhibition of entry was measured in the citrate-treated cultures, in which any remaining external virus was inactivated immediately following exposure to peptide (●). Persistent virus inactivation lasting, at least in part, for the 8 h period following exposure to peptide, was measured in the PBS-treated cultures (◯). The IC50s measured in these experiments are included in Table 5.

In data set [2] the test system is HSV-1 KOS mutant hrR3. The experiment in a line: Inactivation of pre-adsorbed virus (virus inactivation). The data set is classed as cell-based. On the procedure: as §1, §2
For another data set, the system named is hrR3 virions. Kind of data set: Inactivation of virions in solution. Particulars: for IC50: 37° C. It counts as cell-based, HSV-1. On the procedure: Inactivation of virions: To assess the ability of peptides to inactivate virions, 3-4×10^6 pfu/mL of virus was mixed on ice with peptide in serum-free DMEM and incubated for 1 h at 4 or 37° C. Aliquots (10 μL) were diluted 1000-fold into peptide-free serum-supplemented DMEM at 23° C. and 50 μL aliquots were assayed in triplicate for infectivity in Vero cell cultures (dilution assay). Alternatively, 10 μL aliquots were diluted into 1 mL of ice-cold peptide-free serum-supplemented DMEM and the virus was pelleted as described above (centrifugation assay). Viral pellets were then resuspended in 250 μL serum-supplemented DMEM and 50 μL aliquots were assayed in triplicate for infectivity in Vero cell cultures.
Some of the virus diluted without the addition of NaCl was pelleted immediately (Control), while the rest of the diluted virus was stored at 4° C. and pelleted 19 h later. The virus was pelleted and assayed for infectivity as described in Example 1.

The test system of data set [3] is Vero, HeLa, CV-1PD, TM-1, DP-9, CEMx174, NIKS, W12E cells. The experiment in a line: MTS assay, eight cell lines. On the technique in general: Tetrazolium dyes change colour on reduction, which living cells bring about.
Another data set deals with cornea. Kind of data set: In vivo peptide toxicity, cornea. On the set-up: species or system BALB/C mice. To be noted: mouse. The method, then: (i) Cornea: Four-6-week-old female BALB/C mice (Harlan Sprague Dawley, Indianapolis, Ind.) were anesthetized by halothane inhalation (3-5%). A 2.0 μL drop of serum-free 5×DMEM solution containing 6.1 mM EB, 6.1 mM EBX, 7.5 mM TAT-C, 7.5 mM n50,51 TAT-C, 7.5 mM TAT-Cd, or 11.2 mM bHOMd or serum-free DMEM only (control) was then placed on the cornea and the mice were returned to their cages. Each group consisted of 5 mice, except for 11.2 mM bHOMd, and 7.5 mM TAT-Cd, which consisted of 4 mice. Only the right eye in each mouse received the peptide. Treatments were given 4 times per day at least 2 hrs apart for 7 days. […] Damage to the corneal epithelium was assessed by staining with 1.0% […] and examination under a microscope with blue light. Blepharitis was scored: 1+ for noticeable puffy eyelids, 2+ for puffy eyelids with moderate crusting, 3+ for eye 50% swollen shut with severe crusting, and 4+ for eye totally swollen and crusted shut (Brandt et al., 1992). Punctate keratopathy, dendrite ulceration, and geographic ulceration were scored: 1+ for <25% of the cornea involved, 2+ for 25-50% involved, 3+ for 50-75% involved, and 4+ for >75% involved. The mean disease score for each group of mice on each day was calculated by the sum of disease scores in each group on each day divided by the numbers of mice in that group. […]

Data set [4] concerns HSV-1 KOS mutant hrR3.
[5] abbreviates: 33° C., read-out: Entry Block 33° C. IC50.
[6] abbreviates: 37° C., read-out: Entry Block 37° C. IC50.
Setting [7] is: 33° C., read-out: Inactivation of Pre-Adsorbed Virus 33° C. IC50.
[8] abbreviates: 37° C., read-out: Inactivation of Pre-Adsorbed Virus 37° C. IC50.

`CCCC[C@H](NC(=O)[C@H](CCCC)NC(=O)[C@H](CCC(N)=O)NC(=O)[C@H](CCCNC(=N)N)NC(=O)[C@H](CCCNC(=N)N)NC(=O)[C@H](CCCCN)NC(=O)[C@H](CCCCN)NC(=O)[C@H](CCCNC(=N)N)NC(=O)CN)C(=O)N[C@@H](CCCNC(=N)N)C(=O)N[C@@H](CS)C(N)=O` [n55,56TAT-C, NH2-GRKKRRQnLnLRC-amide]: the IC50 is 37 µM with HSV-1 KOS mutant hrR3 [1] (setting [5]); 49 µM in the data set on HSV-1 KOS mutant hrR3 [1] (setting [6]); 240 µM in the data set with HSV-1 KOS mutant hrR3 [2] (setting [7]); 160 µM with HSV-1 KOS mutant hrR3 [2] (setting [8]); above 600 µM with hrR3 virions. Further, the “loss of antiviral activity relative to non-substituted peptide” value in the data set on HSV-1 KOS mutant hrR3 [1] is above 90%. Moreover, in the data set with hrR3 virions (1 h, 4 to 37° C., serum-supplemented DMEM), the “concentration with no effect on virions” value was above 200 µM. Also, the “cytotoxicity to cells (MTS), overall” value in data set [3] is reported as “generally not cytotoxic”.
`CCCC[C@@H](NC(=O)[C@@H](CCCC)NC(=O)[C@@H](CCC(N)=O)NC(=O)[C@@H](CCCNC(=N)N)NC(=O)[C@@H](CCCNC(=N)N)NC(=O)[C@@H](CCCCN)NC(=O)[C@@H](CCCCN)NC(=O)[C@@H](CCCNC(=N)N)NC(=O)CN)C(=O)N[C@H](CCCNC(=N)N)C(=O)N[C@H](CS)C(N)=O` [n55,56TAT-Cd, NH2-GRKKRRQnLnLRC-amide]: the IC50 with HSV-1 KOS mutant hrR3 [1] (setting [5]) was 3.9 µM; in the data set on HSV-1 KOS mutant hrR3 [1] (setting [6]) it was 5.3 µM; with HSV-1 KOS mutant hrR3 [2] (setting [7]) it was 16 µM; with HSV-1 KOS mutant hrR3 [2] (setting [8]), 13 µM; in the data set with hrR3 virions, 250 µM. In addition, the “loss of antiviral activity relative to non-substituted peptide” value in the data set with HSV-1 KOS mutant hrR3 [1] is recorded as “about half”.
As to `CCCC[C@H](NC(=O)[C@H](CCCNC(=N)N)NC(=O)CN)C(=O)N[C@@H](CCCC)C(=O)N[C@@H](CCCNC(=N)N)C(=O)N[C@@H](CCCNC(=N)N)C(=O)N[C@@H](CCC(N)=O)C(=O)N[C@@H](CCCNC(=N)N)C(=O)N[C@@H](CCCNC(=N)N)C(=O)N[C@@H](CCCNC(=N)N)C(=O)N[C@@H](CS)C(=O)O` [n50,51TAT-C, NH2-GRnLnLRRQRRRC-COOH], the “decrease of inhibition of entry (increase in IC50s) between 31 and 37° C.” value in the data set on HSV-1 KOS mutant hrR3 [1] (31 vs 37° C.) is on record as around 50 fold. Moreover, the IC50 is 1.3 µM with HSV-1 KOS mutant hrR3 [1] (31° C., read-out: inhibition of entry IC50); 5.9 µM in the data set on HSV-1 KOS mutant hrR3 [1] (setting [5]); 48 µM in the data set on HSV-1 KOS mutant hrR3 [1] (37° C., FIG. 15D, read-out: inhibition of entry IC50); 41 µM in the data set with HSV-1 KOS mutant hrR3 [1] (setting [6]); 215 µM in the data set with HSV-1 KOS mutant hrR3 [2] (setting [7]); 210 µM in the data set on HSV-1 KOS mutant hrR3 [2] (setting [8]). Also, the IC50 is above 200 µM in the data set on HSV-1 KOS mutant hrR3 [2] (both temperatures (31° C. and 37° C.), read-out: virus inactivation IC50s); around 200 µM with HSV-1 KOS mutant hrR3 [2] (various temperatures, FIG. 16B, read-out: virus inactivation IC50s at various temperatures); above 600 µM in the data set on hrR3 virions. Further, the corneal pathology result in the data set on cornea is reported as “no evidence of corneal pathology”. Moreover, the “entry at 32° C. blocked” value with HSV-1 KOS mutant hrR3 [4] (10 μM peptide, 1 h at 32° C.) was “about 60%”. The “virus that eventually entered cells after peptide removal at 37° C.” value with HSV-1 KOS mutant hrR3 [4] (100 μM peptide) was determined as 75%. Further, the “entry at 32° C. inhibited” value in the data set with HSV-1 KOS mutant hrR3 [4] (100 μM peptide, 1 h at 32° C.) was “about 90%”. Besides, the “reversibility of the inhibitory effect after removal of peptide” value in the data set with HSV-1 KOS mutant hrR3 [4] (n50,51TAT-C 10 μM, TAT-C 10 or 100 μM) is listed as “fully reversible”.

Values taken from patent US7432045B2 (priority 2003, dated 2008).
